Ab-14 heavy chain CDR variants: yeast mating affinities

All variants were tested on one target, the spike HR2 peptide PDVDLGDISGINAS (SARS-CoV-2).

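The parent was found by panning a naive human phage display library on the peptide. The library (AAYL49) carries one to three amino acid substitutions per variant, with no insertions or deletions. AlphaSeq pools MATa yeast showing the antibodies with MATalpha yeast showing the peptide. After mating in shaken culture at 30 °C for 16 h, diploids were selected and their barcode pairs sequenced. Read counts were normalised to the haploid input and turned into Kd by a linear fit to BCL2-family pairs of known affinity, for each replicate. Mating was done three times.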

Each scFv is VH, three GGGGS repeats, VL, as in the parent Ab-14, and differs from it in the CDRs of the heavy chain only.
VH: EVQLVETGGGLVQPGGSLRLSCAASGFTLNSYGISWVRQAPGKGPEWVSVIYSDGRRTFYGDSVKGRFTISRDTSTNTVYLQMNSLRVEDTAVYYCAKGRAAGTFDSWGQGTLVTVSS
VL: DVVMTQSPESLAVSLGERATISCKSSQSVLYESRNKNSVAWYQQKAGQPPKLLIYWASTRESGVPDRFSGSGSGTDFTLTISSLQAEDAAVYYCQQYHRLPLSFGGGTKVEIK

Changes read parent residue, position, new residue, counted from the first residue of the VH shown. All variants listed here change Y52 of the VH, counted from its first residue. Values are log10 of the apparent Kd in nM; lower means stronger binding. Replicates are averaged; those with no signal do not enter the mean. "nd" means that the variant was in the library but no mating with the target was seen in that replicate; the authors take this as a sign of poor binding, and no number exists.

G26F+S31E+Y52M: nd, nd, nd (controls 0 of 9).
Y52I+T58C+S107K: nd, 3.04, nd (controls 2 of 9).
Y52P+R100V+G103M: nd, nd, nd (controls 1 of 9).
I34C+Y52S+Y60W: nd, nd, nd (controls 2 of 9).
Y52A+G61F+R100Y: nd, nd, nd (controls 0 of 9).
Y52A+T58Y+D106M: nd, nd, 5.35 (controls 0 of 9).
S35D+Y52H: nd, nd, nd (controls 0 of 9).
I34N+Y52E: nd, nd, nd (controls 3 of 9).
G26Q+Y52T: 2.10, 1.94, 2.32 (mean 2.12; controls 2 of 9).
V50P+Y52C+R100V: nd, nd, nd (controls 1 of 9).
Y32N+Y52V+F59K: nd, nd, nd (controls 2 of 9).
Y52G+R57A+R100H: nd, nd, nd (controls 0 of 9).
Y52S+T104H: nd, 4.36, 3.49 (mean 3.92; controls 1 of 9).
Y52K+K65G+T104L: 5.88, nd, nd (controls 0 of 9).
T28W+Y52N+G61R: nd, nd, 4.30 (controls 1 of 9).
Y52D+D54I+G103E: 5.20, nd, nd (controls 1 of 9).
Y52A+S63Y+K65R: nd, nd, nd (controls 0 of 9).
S35K+Y52N+T104E: nd, nd, nd (controls 1 of 9).
L29C+Y52K+D54R: 3.04, nd, nd (controls 1 of 9).
Y52Q+A102G: nd, nd, nd (controls 1 of 9).
S31D+S35M+Y52I: 3.98, nd, 6.08 (mean 5.03; controls 2 of 9).
V50T+Y52S+A101Y: nd, 2.63, nd (controls 4 of 9).
Y52I+R57M+D62M: nd, nd, nd (controls 0 of 9).
G26R+Y52F+G61C: nd, nd, nd (controls 0 of 9).
S31A+Y52R+T58V: nd, nd, nd (controls 1 of 9).
Y52V+K65Q+A102R: nd, nd, nd (controls 0 of 9).
Y52P+A102D+T104H: nd, nd, nd (controls 1 of 9).
S35T+Y52M+F105E: nd, 2.54, nd (controls 1 of 9).
Y52R+F59G+S107M: nd, nd, nd (controls 1 of 9).
Y52L+R100W+S107V: nd, nd, nd (controls 0 of 9).
Y52Q+T104F+S107Y: nd, nd, nd (controls 0 of 9).
Y52R+V64N+A102E: nd, 3.38, nd (controls 1 of 9).
G33F+Y52Q+R56C: nd, nd, nd (controls 0 of 9).
T28K+Y52T+G99E: nd, nd, nd (controls 5 of 9).
Y52K+G55M+Y60W: nd, nd, nd (controls 1 of 9).
Y32G+Y52P+R57C: nd, nd, nd (controls 0 of 9).
I34F+Y52C+T104G: nd, 4.52, nd (controls 3 of 9).
Y52K+R56L+A102P: nd, nd, nd (controls 1 of 9).
N30C+V50I+Y52S: 4.53, 4.37, nd (mean 4.45; controls 3 of 9).
Y52F+S53D+G61M: 5.91, nd, 4.82 (mean 5.37; controls 1 of 9).
S31M+Y52W+D54A: nd, nd, nd (controls 0 of 9).
G26Y+Y52G+S53A: 2.82, 2.50, nd (mean 2.66; controls 0 of 9).
N30H+I51G+Y52V: 6.00, nd, nd (controls 0 of 9).
Y52S+R56W+D106T: nd, nd, nd (controls 0 of 9).
G26I+Y52M+K65E: nd, nd, nd (controls 0 of 9).
Y52K+R56S+D106Y: nd, nd, nd (controls 0 of 9).
Y52R+T104D: nd, nd, 6.23 (controls 4 of 9).

A selection of 4 entries from above:

changes,"replicates, log10 nM","mean, log10 nM",empty controls
V50T+Y52S+A101Y,"nd, 2.63, nd",2.63,4 of 9
Y32G+Y52P+R57C,"nd, nd, nd",nd,0 of 9
Y52S+R56W+D106T,"nd, nd, nd",nd,0 of 9
Y52P+R100V+G103M,"nd, nd, nd",nd,1 of 9

Parent in this assay: reference entry 0.65, copy in this library 4.11 (one replicate of three). Nonspecific signal, from three strains lacking the peptide, appeared in 15% of pairings of library AAYL49, centred on 4.06 (5% of these signals below 2.83); values are not corrected for it. The control count says in how many pairings with the empty strains this scFv gave a signal.

Reference: Engelhart et al. 2022, doi:10.1038/s41597-022-01779-4. File: FLAb, binding data.